Reference: patent EP1027361B1, “6,11-BRIDGED ERYTHROMYCIN DERIVATIVES” (Abbott Laboratories, priority 1997, dated 1999)

System: Streptococcus Pheumoniae 5979
Experiment: in vitro antibacterial activity, agar dilution MIC
Assay type: cell-based
Settings: organism code ZZ, BHI agar, 35-37 °C, 20 to 24 hours
Method: Representative compounds of the present invention were assayed in vitro for antibacterial activity as follows: Twelve petri dishes containing successive aqueous dilutions of the test compound mixed with 10 mL of sterilized Brain Heart Infusion (BHI) agar (Difco 0418-01-5) were prepared. Each plate was inoculated with 1:100 (or 1:10 for slow-growing strains, such as Micrococcus and Streptococcus) dilutions of up to 32 different microorganisms, using a Steers replicator block. The inoculated plates were incubated at 35-37 °C for 20 to 24 hours. In addition, a control plate, using BHI agar containing no test compound, was prepared and incubated at the beginning and end of each test
An additional plate containing a compound having known susceptibility patterns for the organisms being tested and belonging to the same antibiotic class as the test compound was also prepared and incubated as a further control, as well as to provide test-to-test comparability. Erythromycin A was used for this purpose.
After incubation, each plate was visually inspected. The minimum inhibitory concentration (MIC) was defined as the lowest concentration of drug yielding no growth, a slight haze, or sparsely isolated colonies on the inoculum spot as compared to the growth control.

Q: With `CC[C@H]1OC(=O)[C@H](C)[C@@H](O[C@H]2C[C@@](C)(OC)[C@@H](O)[C@H](C)O2)[C@H](C)[C@@H](O[C@@H]2O[C@H](C)C[C@H](N(C)C)[C@H]2O)[C@](C)(O)C[C@@H](C)C(=O)[C@H](C)[C@@H](O)[C@]1(C)O` [Ery. A, Erythromycin A, reference compound] as the compound, how does the “minimum inhibitory concentration (MIC)” value read?
A: >128
